The text below walks through data of ChEMBL document CHEMBL1255197, “Surface plasmon resonance biosensor based fragment screening using acetylcholine binding protein identifies ligand efficiency hot spots (LE hot spots) by deconstruction of nicotinic acetylcholine receptor α7 ligands” (J Med Chem, 2010).

Protein sequences, listed by entry. Tags and fused reporters are not part of them.
UniProt P58154, whole entry: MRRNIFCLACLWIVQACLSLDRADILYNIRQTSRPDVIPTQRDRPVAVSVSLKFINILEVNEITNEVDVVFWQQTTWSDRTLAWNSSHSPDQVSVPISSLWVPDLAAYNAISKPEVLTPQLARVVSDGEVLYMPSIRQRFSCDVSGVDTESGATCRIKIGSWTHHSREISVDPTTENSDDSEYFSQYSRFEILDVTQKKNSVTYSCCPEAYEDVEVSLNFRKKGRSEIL

The test concerns the target Acetylcholine-binding protein (Lymnaea stagnalis, UniProt P58154).

As a reminder, the Ki is a measure of affinity in units of concentration, obtained from inhibition or displacement. A high value points to a looser hold on the target. Turning to `CN1CCC[C@H]1c1cccnc1` [NICOTINE], the Ki is 0.331 µM.
